Results published in PMC4841940 (Molecular cell, 2016).

Target: second bromodomain of TAF1
Test: ITC

Row | Kd | Substance
1 | 117 µM | H4K5crK8cr peptide
2 | 52 µM | H4K5acK8ac peptide (the H4 acetylation counterpart of H4K5crK8cr)
